Measured values: article PMC7332966 (2020)

Sequences of proteins named here, by UniProt entry; tags and fusion partners are left off. A change or cut given only in a name is not applied to a line headed by its entry.
UniProt Q9NVI1: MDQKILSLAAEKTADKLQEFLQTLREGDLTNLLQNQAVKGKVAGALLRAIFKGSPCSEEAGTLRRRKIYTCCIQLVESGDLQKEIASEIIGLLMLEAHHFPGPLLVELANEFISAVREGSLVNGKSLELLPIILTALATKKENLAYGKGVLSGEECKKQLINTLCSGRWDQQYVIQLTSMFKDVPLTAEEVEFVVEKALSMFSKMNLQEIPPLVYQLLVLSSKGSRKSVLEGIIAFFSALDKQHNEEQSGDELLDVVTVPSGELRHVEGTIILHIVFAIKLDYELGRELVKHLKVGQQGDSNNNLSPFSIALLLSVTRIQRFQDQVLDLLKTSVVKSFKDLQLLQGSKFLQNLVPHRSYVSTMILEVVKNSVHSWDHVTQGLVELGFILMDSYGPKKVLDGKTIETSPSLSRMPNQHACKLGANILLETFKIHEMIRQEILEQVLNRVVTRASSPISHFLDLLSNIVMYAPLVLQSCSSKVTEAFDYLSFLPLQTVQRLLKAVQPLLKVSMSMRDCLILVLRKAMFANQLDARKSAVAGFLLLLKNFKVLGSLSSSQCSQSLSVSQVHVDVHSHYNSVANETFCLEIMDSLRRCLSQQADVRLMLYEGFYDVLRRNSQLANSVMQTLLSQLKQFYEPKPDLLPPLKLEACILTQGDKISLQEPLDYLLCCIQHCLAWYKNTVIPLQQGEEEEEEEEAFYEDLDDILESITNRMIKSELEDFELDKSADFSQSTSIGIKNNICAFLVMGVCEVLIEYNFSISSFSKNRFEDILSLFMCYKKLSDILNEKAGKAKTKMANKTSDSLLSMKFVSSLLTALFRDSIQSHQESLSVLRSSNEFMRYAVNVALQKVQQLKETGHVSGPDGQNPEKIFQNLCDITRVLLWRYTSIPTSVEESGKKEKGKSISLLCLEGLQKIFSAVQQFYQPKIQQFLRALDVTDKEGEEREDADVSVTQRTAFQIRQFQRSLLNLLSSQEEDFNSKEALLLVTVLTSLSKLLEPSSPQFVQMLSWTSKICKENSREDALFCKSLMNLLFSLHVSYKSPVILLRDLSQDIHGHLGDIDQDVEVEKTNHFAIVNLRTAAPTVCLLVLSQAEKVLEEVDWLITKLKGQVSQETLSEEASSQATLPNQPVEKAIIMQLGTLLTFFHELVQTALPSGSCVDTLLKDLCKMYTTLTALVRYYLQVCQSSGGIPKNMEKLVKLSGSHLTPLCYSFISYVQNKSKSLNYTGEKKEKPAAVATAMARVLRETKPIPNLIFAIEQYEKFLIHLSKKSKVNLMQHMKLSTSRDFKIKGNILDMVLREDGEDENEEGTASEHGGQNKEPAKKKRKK

Target: His6-FANCI R1285Q (human, UniProt Q9NVI1, R1285Q, RED-tris-NTA dye (NanoTemper) on the His6 tag)

B1: FANCD2 (from His6-3C-FANCD2, His6-tag cleaved by 3C protease) (natural protein)
chain: MVSKRRLSKSEDKESLTEDASKTRKQPLSKKTKKSHIANEVEENDSIFVKLLKISGIILKTGESQNQLAVDQIAFQKKLFQTLRRHPSYPKIIEEFVSGLESYIEDEDSFRNCLLSCERLQDEEASMGASYSKSLIKLLLGIDILQPAIIKTLFEKLPEYFFENKNSDEINIPRLIVSQLKWLDRVVDGKDLTTKIMQLISIAPENLQHDIITSLPEILGDSQHADVGKELSDLLIENTSLTVPILDVLSSLRLDPNFLLKVRQLVMDKLSSIRLEDLPVIIKFILHSVTAMDTLEVISELREKLDLQHCVLPSRLQASQVKLKSKGRASSSGNQESSGQSCIILLFDVIKSAIRYEKTISEAWIKAIENTASVSEHKVFDLVMLFIIYSTNTQTKKYIDRVLRNKIRSGCIQEQLLQSTFSVHYLVLKDMCSSILSLAQSLLHSLDQSIISFGSLLYKYAFKFFDTYCQQEVVGALVTHICSGNEAEVDTALDVLLELVVLNPSAMMMNAVFVKGILDYLDNISPQQIRKLFYVLSTLAFSKQNEASSHIQDDMHLVIRKQLSSTVFKYKLIGIIGAVTMAGIMAADRSESPSLTQERANLSDEQCTQVTSLLQLVHSCSEQSPQASALYYDEFANLIQHEKLDPKALEWVGHTICNDFQDAFVVDSCVVPEGDFPFPVKALYGLEEYDTQDGIAINLLPLLFSQDFAKDGGPVTSQESGQKLVSPLCLAPYFRLLRLCVERQHNGNLEEIDGLLDCPIFLTDLEPGEKLESMSAKERSFMCSLIFLTLNWFREIVNAFCQETSPEMKGKVLTRLKHIVELQIILEKYLAVTPDYVPPLGNFDVETLDITPHTVTAISAKIRKKGKIERKQKTDGSKTSSSDTLSEEKNSECDPTPSHRGQLNKEFTGKEEKTSLLLHNSHAFFRELDIEVFSILHCGLVTKFILDTEMHTEATEVVQLGPPELLFLLEDLSQKLESMLTPPIARRVPFLKNKGSRNIGFSHLQQRSAQEIVHCVFQLLTPMCNHLENIHNYFQCLAAENHGVVDGPGVKVQEYHIMSSCYQRLLQIFHGLFAWSGFSQPENQNLLYSALHVLSSRLKQGEHSQPLEELLSQSVHYLQNFHQSIPSFQCALYLIRLLMVILEKSTASAQNKEKIASLARQFLCRVWPSGDKEKSNISNDQLHALLCIYLEHTESILKAIEEIAGVGVPELINSPKDASSSTFPTLTRHTFVVFFRVMMAELEKTVKKIEPGTAADSQQIHEEKLLYWNMAVRDFSILINLIKVFDSHPVLHVCLKYGRLFVEAFLKQCMPLLDFSFRKHREDVLSLLETFQLDTRLLHHLCGHSKIHQDTRLTQHVPLLKKTLELLVCRVKAMLTLNNCREAFWLGNLKNRDLQGEEIKSQNSQESTADESEDDMSSQASKSKATEDGEEDEVSAGEKEQDSDESYDDSD
  Kd: 3.43 nM
